According to patent US11008620B2, “Methods for treating cancer resistant to ErbB therapeutics” (Dana-Farber Cancer Institute, Inc., priority 2007, dated 2021):
Entries after “also recorded” stand apart in the source; their conditions may differ.

Key:
Format in all cases: cell-based
[1] = system: ERBB3 and Gab1 association with p85 in HCC827 GR cells; test: anti-p85 immunoprecipitation in HCC827 GR cells; conditions: 1 μM each drug, 6 hours (FIG. 2C)
HCC827 cell line = test: phospho-receptor tyrosine kinase (RTK) array, HCC827; conditions: 1 μM gefitinib
[2] = system: ERBB3 and Gab1 association with p85 in HCC827 cell line; test: anti-p85 immunoprecipitation in parental HCC827 cell line; conditions: 1 μM gefitinib, 6 hours (FIG. 2C)
HCC827 GR5 cells = test: phospho-receptor tyrosine kinase (RTK) array, HCC827 GR5; conditions: HCC827 GR cells; 1 μM gefitinib
HCC827 parental cells = test: apoptosis by cleaved PARP immunoblot, parental HCC827 cells; conditions: parental HCC827 cells (FIG. 7)

## COc1cc2ncnc(Nc3ccc(F)c(Cl)c3)c2cc1OCCCN1CCOCC1 [gefitinib]
[1]
  co-precipitation of ERBB3 and Gab1 with p85: still co-precipitated with p85
HCC827 cell line
  phosphorylation of EGFR, ERBB3, ERBB2 and MET (RTK array): completely or markedly reduced
[2]
  co-precipitation of ERBB3 and Gab1 with p85: Both interactions were disrupted; also recorded: abrogated
HCC827 GR5 cells
  phosphorylation of MET, ERBB3 and EGFR (RTK array): marked phosphorylation of MET and persistent phosphorylation of ERBB3 and EGFR
HCC827 parental cells
  apoptosis (cleaved PARP): sufficient to induce apoptosis
